Measurements: patent US20230203052A1, “ACYCLIC CUCURBITURILS, METHODS OF MAKING SAME, AND USES THEREOF” (University of Maryland, College Park, priority 2020, published 2023)

Assay: ITC binding of guests to host 1 (direct or competitive titration)
Conditions: pH 7.4

For `CN1CC[C@]23c4c5ccc(O)c4O[C@H]2C(=O)CC[C@H]3[C@H]1C5` [Hydromorphone], the “Ka of host·guest complex of 1” value was 2.54 × 10^6; −15.4 M^−1.
